Test system: patients with MDD
Assay: Toronto side effects scale (TSES), treatment-related side effects
Format: in vivo, human
Settings: vs NM; Phase II
From the text: The Toronto side effects scale (TSES), administered on Weeks 2, 4, 10, 12, and 16, is a clinical instrument designed to assess the frequency and severity of treatment-related side effects on 5-point Likert scales. The “intensity” score is derived by multiplying the frequency and severity of each side effect. The items assessed can be broadly categorized into the central nervous system (CNS), gastrointestinal (GI), and sexual side effects, as well as weight gain (Table S1)[28]. […]
We assessed the dichotomous measures of response (responder vs. non-responder and remitter vs. non-remitter) and side effects (present vs. absent) for the last timepoint in Phases I and II using logistic regression models with total MADRS score at baseline included as a covariate. Given the availability of biweekly MADRS scores and multiple time points for TSES, continuous measures of response (percentage of symptom improvement) and side effects (intensity of each category of side effects) were assessed using linear mixed-effects models that included interactions of CYP2C19 and CYP2D6 metabolizer groups with timepoint, and recruitment site and individual as random effects variables. […]

SMILES: CN(C)CCC[C@@]1(c2ccc(F)cc2)OCc2cc(C#N)ccc21 [ESC, Escitalopram]
- Odds ratio, presence of tremor, CYP2D6 IM+PM: 1.99
